According to BindingDB's records for doi:10.1124/jpet.102.047183 (Abbott Laboratories, 2003):
Where “and” joins values, the source holds several entries; their conditions need not be identical. Identical values can stand only once.

By UniProt entry, the sequences of proteins in these tests, tags left out. Where a name states a change or a piece, a line headed by the entry shows the natural chain unless it says otherwise.
UniProt Q5PPG3, whole entry: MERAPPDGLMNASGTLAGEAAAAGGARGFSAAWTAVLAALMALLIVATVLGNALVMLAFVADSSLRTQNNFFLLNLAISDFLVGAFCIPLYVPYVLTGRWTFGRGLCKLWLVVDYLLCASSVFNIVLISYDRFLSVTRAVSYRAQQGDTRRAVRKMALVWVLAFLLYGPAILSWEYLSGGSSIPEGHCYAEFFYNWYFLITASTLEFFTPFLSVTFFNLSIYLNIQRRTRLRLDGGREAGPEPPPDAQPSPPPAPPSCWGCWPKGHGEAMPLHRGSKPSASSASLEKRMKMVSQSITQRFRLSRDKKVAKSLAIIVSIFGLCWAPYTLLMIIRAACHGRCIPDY
UniProt Q9Y5N1: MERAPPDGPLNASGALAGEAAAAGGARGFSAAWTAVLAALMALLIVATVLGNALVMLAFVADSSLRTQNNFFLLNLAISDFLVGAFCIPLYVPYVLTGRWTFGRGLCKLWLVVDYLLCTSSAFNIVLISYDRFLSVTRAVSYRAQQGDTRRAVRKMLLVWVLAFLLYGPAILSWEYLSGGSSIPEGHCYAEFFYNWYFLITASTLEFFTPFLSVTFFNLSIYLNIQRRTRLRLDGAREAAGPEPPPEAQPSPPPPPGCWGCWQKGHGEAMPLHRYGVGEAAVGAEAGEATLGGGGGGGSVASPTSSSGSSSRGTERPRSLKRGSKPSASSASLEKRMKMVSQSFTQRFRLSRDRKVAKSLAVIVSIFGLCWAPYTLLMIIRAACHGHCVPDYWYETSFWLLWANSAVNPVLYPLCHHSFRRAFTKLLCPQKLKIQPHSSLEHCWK

Legend:
Hrh3 protein = Hrh3 protein (Rattus norvegicus, UniProt Q5PPG3)
Histamine H3 receptor = Histamine H3 receptor (Homo sapiens, UniProt Q9Y5N1)

NC(=NCc1ccc(Cl)cc1)SCCCc1cnc[nH]1 [VUF 9153]
Ki (Hrh3 protein): 0.18 nM and 0.35 nM | Ki (Histamine H3 receptor): 0.36 nM and 0.78 nM

C[C@@H](NC(=O)c1ccco1)C(=O)N1CCN(CCCOc2ccc(C(=O)C3CC3)cc2)CC1
Ki (Histamine H3 receptor): 93.3 nM and 117 nM
